## Curated experimental data: vapor pressure values

From the experimental data distributed with OPERA 2.9.

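These are experimental values that the OPERA curators gathered from public databases to train and test their QSAR models. One number stands for a compound and property, with no spread given. Method and conditions are not stated for these values. The measured form (salt, isomer or mixture) is not always the one drawn. Unmarked limits or estimates from the upstream databases cannot be ruled out.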

Vapor pressures (log10 mmHg) refer to near room temperature, 15 to 30 °C; higher is more volatile.

| structure (SMILES) | log VP (log10 mmHg) |
|---|---|
| COC(=O)c1ccccc1N=NC(C)Cc1ccc(C(C)(C)C)cc1 (stereo not given) | -5.046 |
| CCOP(=O)([O-])Cc1cc(C(C)(C)C)c(O)c(C(C)(C)C)c1.CCOP(=O)([O-])Cc1cc(C(C)(C)C)c(O)c(C(C)(C)C)c1.[Ca+2] | -15.1 |
| CC(C)(C)c1ccc(C=O)cc1 | -1.519 |
| CCc1occc(=O)c1O | -2.824 |
| C=CCC(=CCC1CC(=O)OC1=O)CC=C (stereo not given) | -0.601 |
| CCCCCCCCCCCC(=O)N(C)C | -2.894 |
| CCCCNc1ccc(NCCCC)c2c1C(=O)c1ccccc1C2=O | -8.663 |
| CCCCC[C@@H]1CCC[C@@H]1O (relative stereo) | -1.435 |
| C=C(C)C(=O)OCCCCCCCCCCCCOC(=O)C(=C)C | -5.061 |
| C=C(Cl)C(=O)[O-].[Na+] | -8.718 |
| CCCCC1CCC(C2CCC(c3ccc(OCC)c(F)c3F)CC2)CC1 (stereo not given) | -6.907 |
| CC(C)OCCO | 0.586 |
| CCCCC(CC)CN(CC(CC)CCCC)CC(CC)CCCC (stereo not given) | -5.139 |
| C=C(C)C(=O)OCC(F)(F)C(F)(F)C(F)(F)C(F)F | 0.969 |
| O=C1CCCCCCCCCCC(=O)OCCO1 | -3.678 |
| C=C(C)COCC/C=C\CC | -0.111 |
| CC(C)[C@@H](C(=O)O)N1CCCNC1=O | -6.337 |
| CCCCc1ccc(-c2ccc(-c3ccc(CC)cc3)c(F)c2F)cc1 | -7.555 |
| CN1CCN(C)C1=O | -0.828 |
| C=C(C)C(=O)OCCOCC | -1.01 |
| C[N+](C)=CCC(O)CC(=N)[O-].Cl (stereo not given) | -6.305 |
| COc1cc2c(cc1OC)CC(=O)N(CCC1OCCO1)C=C2 | -5.084 |
| CCCCCCCCCCCCCCCCCC[Si](C)(C)Cl | -3.648 |
| O=C=Nc1ccc(C(c2ccc(N=C=O)cc2)c2ccc(N=C=O)cc2)cc1 (stereo not given) | -6.546 |
| O=C(O)[C@@H]1C2CCC(CC2)[C@H]1Nc1nc(Cl)ncc1F | -9.636 |
| CN(C)CCCN(C)CCCN(C)C | 0.477 |
| Nc1cc([N+](=O)[O-])ccc1O | -4.453 |
| CCCCCCCC/C=C\CCCCCCCCO[PH](=O)OCCCCCCCC/C=C\CCCCCCCC | -6.364 |
| COc1ccc(C)cc1C(CC(=O)O)c1ccccc1 (stereo not given) | -7.985 |
| CN1C(=O)c2ccccc2C1=O | -3.415 |
| CCC[C@H]1CC[C@H]([C@H]2CC[C@H](C=O)CC2)CC1 | -4.34 |
| CCCc1ccc(OC)cc1 | 0.875 |
| Cc1nc(C)n(C)c1C | -0.824 |
| CC(=O)O.CCCCCC1=C(O)CCC1CC(=O)OC (stereo not given) | -3.824 |
| C=C(C)C(=O)OCCNC(C)(C)C | -1.348 |
| O=C1NC(=O)C2CCCC12 (stereo not given) | -3.764 |
| CCCCC(CC)COC(=O)COc1ccc(Cl)cc1Cl (stereo not given) | -3.445 |
| O=C(CCCCC(=O)OCC1CCC2OC2C1)OCC1CCC2OC2C1 (stereo not given) | -6.813 |
| CC(O)CN(CCO)CCO (stereo not given) | -4.201 |
| O=Cc1ccc(C=O)cc1 | -2.595 |
| C=CN(C)C(C)=O | 0.189 |
| CCOC(=O)C1CCC(C(=O)OCC)CC1 (stereo not given) | -2.824 |
| CC(=O)OCCN(CCOC(C)=O)c1ccc(N=Nc2sc([N+](=O)[O-])cc2[N+](=O)[O-])cc1 | -5.453 |
| CCOCCN | 1.369 |
| Br.CN[C@@H](C)c1cccc(OC)c1 | -7.163 |
| O=C(O)c1c(F)cccc1F | -1.585 |
| FC(F)=C(F)OC(F)(F)C(F)(OC(F)(F)C(F)(F)C(F)(F)F)C(F)(F)F (stereo not given) | 1.6 |
| O=c1[nH]c2ccccc2c(=O)n1CCCl | -9.608 |
| COC(=O)c1ccc(C)cc1 | -0.979 |
| O=C([O-])CN(CCO)CCN(CC(=O)[O-])CC(=O)[O-].[Na+].[Na+].[Na+] | -9.824 |
| CC1(C)[C@H]2CC[C@]3(C2)[C@H]1C1(CCC3(C)C)OCCO1 | -2.362 |
| CCCCCCCC/C=C\CCCCCCCC(=O)NCCCN(C)C | -7.815 |
| C=CC1CCC(C2CCC(c3ccc(C)cc3)CC2)CC1 (stereo not given) | -5.835 |
| CCO[Si](C)(CCCN([Si](C)(C)C)[Si](C)(C)C)OCC | -2.438 |

Again, the 5 entries with the lowest log VP:

| structure (SMILES) | log VP (log10 mmHg) |
|---|---|
| CCOP(=O)([O-])Cc1cc(C(C)(C)C)c(O)c(C(C)(C)C)c1.CCOP(=O)([O-])Cc1cc(C(C)(C)C)c(O)c(C(C)(C)C)c1.[Ca+2] | -15.1 |
| O=C([O-])CN(CCO)CCN(CC(=O)[O-])CC(=O)[O-].[Na+].[Na+].[Na+] | -9.824 |
| O=C(O)[C@@H]1C2CCC(CC2)[C@H]1Nc1nc(Cl)ncc1F | -9.636 |
| O=c1[nH]c2ccccc2c(=O)n1CCCl | -9.608 |
| C=C(Cl)C(=O)[O-].[Na+] | -8.718 |